Measured affinities in a library of Ab-14 light chain variants

Antigen: PDVDLGDISGINAS, a 14-residue peptide of the SARS-CoV-2 spike HR2 region.

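The variants were designed computationally from a first round of random CDR variants and then made and measured. Their group label is 14L_GP_Gen (GP: Gaussian process model; Gen: genetic algorithm; a sequence that several methods proposed may carry one label only). The scFvs were displayed on barcoded MATa yeast, the peptide on MATalpha yeast. Mating (16 h, 30 °C) was followed by selection of diploids and sequencing of their barcodes. The ratio of observed to expected reads was calibrated, replicate by replicate, on BCL2-family standards whose Kd was known from biolayer interferometry. The assay was run in six technical replicates.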

The variants keep the heavy chain, the linker and the frameworks of Ab-14 (scFv order VH, a (GGGGS)3 linker, VL).
VH: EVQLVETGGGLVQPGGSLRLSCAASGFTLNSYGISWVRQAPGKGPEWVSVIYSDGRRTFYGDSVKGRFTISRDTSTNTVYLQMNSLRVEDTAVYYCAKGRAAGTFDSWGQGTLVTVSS
VL: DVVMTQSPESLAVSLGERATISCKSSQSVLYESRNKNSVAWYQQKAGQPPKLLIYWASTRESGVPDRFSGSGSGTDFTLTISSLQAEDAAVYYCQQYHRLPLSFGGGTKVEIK

Substitutions are numbered in sequence along the VL above, starting at 1 (not Kabat). Numbers give log10(Kd / nM), so 0 is 1 nM and 3 is 1 µM. Smaller is tighter. Empty control strains, which show no peptide, gave a signal in 4% of pairings with all light chain designs; the median was 2.64 and 95% of these signals were weaker than 1.59. No background was subtracted. For each scFv, signals with the empty controls are counted beside the result, with their mean in brackets. In the paper, a design with two or fewer of six values counts as a poor binder. A sequence measured in both rounds can read differently, since the two assays cover different ranges.

{"changes": "S25F+V29D+W56G", "replicates, log10 nM": "-0.52 / -0.69 / -0.79 / -0.86 / -0.32 / -0.28", "empty controls": "0 of 18"}
{"changes": "S25F+S26E+W56N+S62Q", "replicates, log10 nM": "0.05 / -0.05 / -0.24 / -0.49 / -0.11 / -0.21", "empty controls": "1 of 18 (2.45)"}
{"changes": "S25L+V29H+W56N+T59Q+S62Q", "replicates, log10 nM": "-0.05 / 0.01 / -0.11 / -0.67 / -0.05 / -0.25", "empty controls": "0 of 18"}
{"changes": "S25F+W56D+T59Q+E61L", "replicates, log10 nM": "0.24 / 0.30 / 0.18 / 0.13 / 0.03 / 0.54", "empty controls": "3 of 18 (3.00)"}
{"changes": "S25L+V29Q+W56N+E61L+Q96D", "replicates, log10 nM": "0.48 / 0.50 / 0.35 / 0.34 / 0.34 / 0.42", "empty controls": "0 of 18"}
{"changes": "S25F+W56N+E61M", "replicates, log10 nM": "-0.02 / -0.24 / -0.32 / -0.23 / -0.13 / -0.10", "empty controls": "2 of 18 (3.29)"}
{"changes": "S25L+S26Q+V29D+W56E+T59Q", "replicates, log10 nM": "0.03 / -0.06 / -0.12 / -0.28 / -0.09 / 0.04", "empty controls": "3 of 18 (3.62)"}
{"changes": "S25V+S33Q+S38N+W56E", "replicates, log10 nM": "-0.23 / -0.24 / -0.33 / -0.48 / -0.57 / -0.18", "empty controls": "1 of 18 (3.25)"}
{"changes": "S25L+S26P+S28L+W56N", "replicates, log10 nM": "-0.28 / -0.31 / -0.52 / -0.25 / -0.27 / -0.31", "empty controls": "1 of 18 (2.58)"}
{"changes": "S25L+S26Q+V29M+W56S", "replicates, log10 nM": "0.04 / 0.01 / 0.29 / -0.35 / -0.15 / 0.22", "empty controls": "0 of 18"}
{"changes": "S25L+V29C+S38N+W56G", "replicates, log10 nM": "0.33 / 0.53 / 0.30 / -0.17 / 0.38 / 0.55", "empty controls": "2 of 18 (1.58)"}
{"changes": "S25V+V29E+W56E+T59Q+Q96D", "replicates, log10 nM": "-0.24 / -0.58 / -0.25 / -0.34 / -0.43 / -0.33", "empty controls": "0 of 18"}
{"changes": "V29D+W56E+S62Q", "replicates, log10 nM": "0.08 / 0.20 / -0.16 / -0.10 / 0.11 / 0.23", "empty controls": "1 of 18 (3.14)"}
{"changes": "S25L+S26P+W56E+E61C", "replicates, log10 nM": "-0.20 / -0.42 / -0.46 / -0.56 / -0.51 / -0.36", "empty controls": "0 of 18"}
{"changes": "S25L+S26M+V29G+W56N+T59Q", "replicates, log10 nM": "-0.39 / -0.19 / -0.61 / -0.53 / -0.57 / -0.40", "empty controls": "0 of 18"}
{"changes": "S25V+L30P+W56D+T59Q", "replicates, log10 nM": "0.11 / -0.11 / 0.07 / -0.21 / -0.03 / 0.02", "empty controls": "1 of 18 (2.20)"}
{"changes": "S25L+V29W+W56N+T59Y", "replicates, log10 nM": "0.18 / 0.02 / 0.02 / -0.04 / -0.08 / 0.29", "empty controls": "2 of 18 (2.99)"}
{"changes": "S25L+V29M+K36W+W56N+E61L", "replicates, log10 nM": "0.13 / 0.08 / 0.29 / -0.13 / -0.05 / 0.28", "empty controls": "0 of 18"}
{"changes": "S25V+S26Q+E32Q+W56N", "replicates, log10 nM": "0.02 / -0.23 / -0.24 / -0.35 / -0.29 / -0.04", "empty controls": "4 of 18 (2.68)"}
{"changes": "S25L+S26Q+V29D+W56Q", "replicates, log10 nM": "0.04 / -0.02 / 0.19 / 0.10 / -0.08 / 0.05", "empty controls": "2 of 18 (1.98)"}
{"changes": "S25L+S26E+W56H", "replicates, log10 nM": "-0.22 / -0.23 / -0.26 / -0.11 / -0.06 / -0.14", "empty controls": "0 of 18"}
{"changes": "S25L+L30M+S38N+W56S", "replicates, log10 nM": "-0.16 / -0.15 / -0.34 / 0.18 / -0.06 / -0.25", "empty controls": "2 of 18 (3.33)"}
{"changes": "S25L+S26Q+V29W+W56N+S62D", "replicates, log10 nM": "0.02 / 0.22 / -0.24 / -0.08 / -0.12 / 0.39", "empty controls": "1 of 18 (3.17)"}
{"changes": "S25L+N35M+W56D", "replicates, log10 nM": "-0.27 / -0.41 / -0.41 / -0.65 / -0.43 / -0.36", "empty controls": "1 of 18 (2.36)"}
{"changes": "S25L+V29W+L30E+W56N+S62V", "replicates, log10 nM": "-0.18 / -0.14 / -0.22 / -0.37 / -0.34 / -0.07", "empty controls": "3 of 18 (2.52)"}
{"changes": "S25I+W56D+E61M", "replicates, log10 nM": "-0.19 / -0.25 / -0.31 / -0.34 / -0.32 / -0.23", "empty controls": "0 of 18"}
{"changes": "S25L+W56N+E61R", "replicates, log10 nM": "-0.12 / -0.10 / -0.15 / -0.10 / 0.07 / 0.19", "empty controls": "1 of 18 (1.57)"}
{"changes": "Y31M+W56E", "replicates, log10 nM": "0.44 / 0.15 / 0.46 / 0.17 / 0.90 / 0.47", "empty controls": "1 of 18 (2.33)"}
{"changes": "S25L+S26Q+W56G+E61L", "replicates, log10 nM": "0.37 / 0.73 / 0.05 / 0.39 / 0.13 / 0.77", "empty controls": "0 of 18"}

3 of these entries, quoted again:

{"changes": "S25L+V29M+K36W+W56N+E61L", "replicates, log10 nM": "0.13 / 0.08 / 0.29 / -0.13 / -0.05 / 0.28", "empty controls": "0 of 18"}
{"changes": "S25F+W56N+E61M", "replicates, log10 nM": "-0.02 / -0.24 / -0.32 / -0.23 / -0.13 / -0.10", "empty controls": "2 of 18 (3.29)"}
{"changes": "S25L+S26Q+V29D+W56E+T59Q", "replicates, log10 nM": "0.03 / -0.06 / -0.12 / -0.28 / -0.09 / 0.04", "empty controls": "3 of 18 (3.62)"}

From the AlphaSeq antibody data of Li et al. 2023 (doi:10.1038/s41467-023-39022-2), copy in the FLAb collection.